Test results from patent US6191144A, “Method of using angiotensin converting enzyme inhibitor to stimulate angiogenesis” (priority 1999, dated 2001).

Assay: Body weight (Table 1)

## VEGF
Day 10
  Body Weight: 4.08 ± 0.06 kg
Day 40
  Body Weight: 4.01 ± 0.08 kg
